Results reported in patent US20150283269A1, “RECONSTITUTED HUMAN IMMUNE SYSTEM IN A PATIENT DERIVED XENOGRAFT MOUSE MODEL” (Crown Bioscience Inc., priority 2014, published 2015).

Legend:
[1] = system: non-small cell lung cancer PDX LU0387; assay: Tumor growth of non-small cell lung cancer PDX in mice treated with Cetuximab or saline; format: in vivo, mouse
Source text: The HuMice™ mouse model is also useful when engrafted with a human tumor cells, tissue or an infectious disease/organism. Using a previously established non-small cell lung cancer PDX model (HuPrime® mouse model, Crown Bioscience) for non-small cell lung cancer, LU2503 (Yang, M., et al., 2013 Int. J. Cancer, E74-E84, September 5. doi: 10.1002/ijc.27813. [Epub ahead of print], FIG. 3) and LU0387 (FIGS. 4A and 4B) were separately engrafted into the CD34^+ UCB reconstituted NOD/SCID mice.
Further preliminary evaluations were also undertaken to evaluate the new PDX model (HuPrime™ 3.0 mouse model) by treating the new human immunocompetent PDX mice with antibody therapeutics. […] Further work to assess the role of the reconstituted immune system's function in concert with a biologic drug effect was also performed. Standard NOD/SCID mice, PDX for NSCLC were treated with either saline or Cetuximab. […]
(§1) Patient tumor fragments of NSCLC or gastric tumor tissue derived from diseased seed mice were engrafted 2.5 weeks after the CD34+ cell inoculation in order to create patient derived xenograft (PDX) models. […] The treatments were started when mean tumor size reached approximately 100-150 mm^3 The transplanted animals were monitored by weekly bleed and FACS analysis for hCD45^+ cells in peripheral blood.

[2] = system: GA 0055 tumor; assay: Anti-tumor activity against GA 0055 gastric tumor PDX in HuMice and NOD/SCID mice; format: in vivo, mouse; conditions: for tumor growth: with vs without treatment
Source text: In yet another example of the utility of the HuPrime™ 3.0 mouse model (PDX human immunocompetent NOD/SCID mouse with CD34^+ hSC+PDX gastric tumor), patient cells derived from a human patient diagnosed with over-expressing gastric cancer, GA 0055, were engrafted into HuPrime™ 3.0 mice.
The HuPrime™ 3.0 mice engrafted with GA 0055 were divided into six groups, four mice each. Three groups were engrafted with UCB human stem cells and three groups were not. Preliminary data (not shown) indicated slightly slower tumor growth of GA 0055 in the UCB groups verses the three groups without UCB engraftment. The groups were then evaluated for treatment response to 6 mg/kg body weight of Herceptin or 5 mg/kg body weight of Cisplatin. FIG. 6A provides a hematoxylin and eosin (H&E) stained cross-section of GA 0055 tumor cross-sections (40×10) treated with Cisplatin indicates Cisplatin is effective against GA 00555 while FIG. 6B is an immunohistorchemical stained section of GA 0055 treated with HER2. […] This is yet another example of the role of human immunity in providing the ADCC mechanism to facilitate treatment with monoclonal antibody therapeutics.
To further illustrate the ADCC mechanism and the response of GA 0055 to treatment HuMice™ mice (reconstituted human immunocompetent) were engrafted with GA 0055 and then treated with or without Herceptin. Likewise, NOD/SCID (immunodeficient) mice were similarly engrafted and treated with Herceptin.
as §1, with “models. Solid tumor sample fragments from seed mice inoculated with selected primary human lung or gastric cancer tissues were harvested and used for inoculation into mice.” for “models.”, “blood. […]” for “blood.”

Substance | anti-tumor effect (tumor growth) ([1]; HuPrime 3.0 mice (HuMice mouse + PDX for NSCLC), human immunity present, vs Saline, FIG. 4A, initial data) | efficacy (tumor growth) ([1]; standard NOD/SCID mice, PDX for NSCLC, no reconstituted human immune system, vs saline, FIG. 4B) | treatment response, stained GA 0055 tumor section ([2]; 6 mg/kg Herceptin, in the absence of human immunity, FIG. 6B) | tumor growth ([2]; HuMice mice (reconstituted human immunocompetent) engrafted with GA 0055, FIG. 7A, 7C) | tumor growth ([2]; NOD/SCID (immunodeficient) mice engrafted with GA 0055, FIG. 7B, 7D)
Cetuximab | slightly enhanced anti-tumor effect | virtually non-existent |  |  | 
Herceptin |  |  | non-responsive | slowed tumor growth | no impact
